Biological target: Adenosine receptor A1 (Rattus norvegicus, UniProt P25099)
Experiment: Antagonism of binding of 1 nM [3H]cyclohexyladenosine to adenosine A1 receptors on rat cortical membranes
Type: cell membranes, Membrane

Chains of the proteins cited; added tags and fusions are not shown.
UniProt P25099, whole entry: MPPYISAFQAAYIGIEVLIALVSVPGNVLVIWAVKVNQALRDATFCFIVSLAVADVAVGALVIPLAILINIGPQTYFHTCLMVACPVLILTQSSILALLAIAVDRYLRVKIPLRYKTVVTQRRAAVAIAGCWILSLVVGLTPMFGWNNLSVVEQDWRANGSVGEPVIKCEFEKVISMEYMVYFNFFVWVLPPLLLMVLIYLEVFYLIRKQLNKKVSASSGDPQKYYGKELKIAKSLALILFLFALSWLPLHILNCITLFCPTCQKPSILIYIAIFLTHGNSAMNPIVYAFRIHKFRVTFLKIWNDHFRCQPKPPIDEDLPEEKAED

Ki: 3 µM
Structure (SMILES): Cn1c(=O)c2[nH]c(-c3ccc(C(=O)O)cc3)nc2n(C)c1=O

Source: ChEMBL document CHEMBL1123072, “1,3-Dialkyl-8-(p-sulfophenyl)xanthines: potent water-soluble antagonists for A1- and A2-adenosine receptors” (J Med Chem, 1985)
